Reference: paper PMC8569887 (Journal of medicinal chemistry, 2021)

Assays:
[1] = tested on: acetylated α-tubulin (AcTub) levels in QBI293 cells; conditions: for Class (Table 1): from AcTub and α-Tub at 1 and 10 μM; for Class (Table 2): from AcTub and α-Tub at 1 and 10 μM (61: 10 and 30 μM)
[2] = tested on: acetylated α-tubulin (AcTub) levels in QBI293 cells; test: cells; conditions: QBI293, 4 h, read-out: AcTub 10 μM, fold-change over control (DMSO)-treated cells, QBI293 cells, 4 h incubation, 10 μM compound
[3] = tested on: total α-tubulin (α-Tub) levels in QBI293 cells; conditions: 10 μM

C[C@H](Nc1c(-c2c(F)cc(OCCCO)cc2F)c(Cl)nc2ncnn12)C(F)(F)F [Compound 31] was tested, and the “Class (Table 1)” value [1] was “II (Class II compounds are those that cause >15% decrease in α-tubulin at either 1 or 10 μM compound concentration)” and the fold induction at 10 µM [2] was 1.33 ± 0.15.

CC(C)[C@H](Nc1c(-c2c(F)cc(F)cc2F)c(Cl)nc2ncnn12)C(F)(F)F [Compound 47, (S)-5-Chloro-N-(1,1,1-trifluoro-3-methylbutan-2-yl)-6-(2,4,6-trifluorophenyl)-[1,2,4]triazolo[1,5-a]pyrimidin-7-amine] was tested, and the “Class (Table 2)” value [1] was “II (Class II compounds are those that cause >15% decrease in α-tubulin at either 1 or 10 μM compound concentration)” and the “reduction (loss) of α-tubulin” value [3] was ~ 40%.

With C[C@H](Nc1c(-c2c(F)cc(Cl)cc2F)c(Cl)nc2ncnn12)C(F)(F)F [Compound 21, (S)-5-Chloro-6-(4-chloro-2,6-difluorophenyl)-N-(1,1,1-trifluoropropan-2-yl)-[1,2,4]triazolo[1,5-a]pyrimidin-7-amine] the “Class (Table 1)” value [1] was “II (Class II compounds are those that cause >15% decrease in α-tubulin at either 1 or 10 μM compound concentration)” and the “reduction (loss) of α-tubulin” value [3] was 19%.

For C[C@H](Nc1c(-c2ccc(F)c(F)c2F)c(Cl)nc2ncnn12)C(F)(F)F [Compound 16, (S)-5-Chloro-6-(2,3,4-trifluorophenyl)-N-(−1,1,1-trifluoropropan-2-yl)-[1,2,4]triazolo[1,5-a]pyrimidin-7-amine], the “Class (Table 1)” value [1] was “I (Class I compounds are those producing a concentration-dependent increase in AcTub levels and that do not cause >15% reduction in α-tubulin at either concentration)”.

With C[C@H](Nc1c(-c2ccc(F)cc2F)c(Cl)nc2ncnn12)C(F)(F)F [Compound 11] the “Class (Table 1)” value [1] was “I (Class I compounds are those producing a concentration-dependent increase in AcTub levels and that do not cause >15% reduction in α-tubulin at either concentration)”.

In the case of C[C@H](Nc1c(-c2ccccc2F)c(Cl)nc2ncnn12)C(F)(F)F [Compound 10, 5-Chloro-6-(2-fluorophenyl)-N-(−1,1,1-trifluoropropan-2-yl)-[1,2,4]triazolo[1,5-a]pyrimidin-7-amine], the “Class (Table 1)” value [1] is reported as “I (Class I compounds are those producing a concentration-dependent increase in AcTub levels and that do not cause >15% reduction in α-tubulin at either concentration)”.

For C[C@H](Nc1c(-c2cc(F)ccc2F)c(Cl)nc2ncnn12)C(F)(F)F [Compound 14, (S)-5-Chloro-6-(2,5-difluorophenyl)-N-(−1,1,1-trifluoropropan-2-yl)-[1,2,4]triazolo[1,5-a]pyrimidin-7-amine], the “Class (Table 1)” value [1] was “I (Class I compounds are those producing a concentration-dependent increase in AcTub levels and that do not cause >15% reduction in α-tubulin at either concentration)”.

For Fc1cc(F)c(-c2c(Cl)nc3ncnn3c2NC2CCCC2)c(F)c1 [Compound 57, 5-Chloro-N-cyclopentyl-6-(2,4,6-trifluorophenyl)-[1,2,4]triazolo[1,5-a]pyrimidin-7-amine], the “Class (Table 2)” value [1] was “I (Class I compounds are those producing a concentration-dependent increase in AcTub levels and that do not cause >15% reduction in α-tubulin at either concentration)”.

In the case of Fc1cc(F)c(-c2c(Cl)nc3ncnn3c2NC2CCC2)c(F)c1 [Compound 56, 5-Chloro-N-cyclobutyl-6-(2,4,6-trifluorophenyl)-[1,2,4]triazolo[1,5-a]pyrimidin-7-amine], the “Class (Table 2)” value [1] is reported as “I (Class I compounds are those producing a concentration-dependent increase in AcTub levels and that do not cause >15% reduction in α-tubulin at either concentration)”.

With Cc1cc(F)c(-c2c(Cl)nc3ncnn3c2N[C@@H](C)C(F)(F)F)c(F)c1 [Compound 18, (S)-5-Chloro-6-(2,6-difluoro-4-methylphenyl)-N-(1,1,1-trifluoropropan-2-yl)-[1,2,4]triazolo[1,5-a]pyrimidin-7-amine] the “Class (Table 1)” value [1] was “II (Class II compounds are those that cause >15% decrease in α-tubulin at either 1 or 10 μM compound concentration)”.

In the case of CC(C)(C)CNc1c(-c2c(F)cc(F)cc2F)c(Cl)nc2ncnn12 [Compound 59, 5-Chloro-N-neopentyl-6-(2,4,6-trifluorophenyl)-[1,2,4]triazolo[1,5-a]pyrimidin-7-amine], the “Class (Table 2)” value [1] is reported as “I (Class I compounds are those producing a concentration-dependent increase in AcTub levels and that do not cause >15% reduction in α-tubulin at either concentration)”.
